Measured values as given in patent US11517572B2, “Killing senescent cells and treating senescence-associated conditions using a SRC inhibitor and a flavonoid” (Mayo Foundation for Medical Education and Research, priority 2014, dated 2022).

Test system: senescent cells
Conditions: microscopic examination

`CNC(=O)c1cc(Oc2ccc(NC(=O)Nc3ccc(Cl)c(C(F)(F)F)c3)cc2)ccn1` [sorafenib] was tested. Which “killing of senescent and non-senescent cells” value did it give?
Its value is “both senescent cells and non-senescent cells were killed”.
